# Experimental logP (octanol/water) values from OPERA 2.9

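OPERA's authors assembled the values from existing databases and did not measure them anew. One number stands for a compound and property, with no spread given. How each value was measured is not recorded, so precision varies. A value may pool stereoisomers or salt forms, and the file does not say which form was measured. Some entries may be limits or estimates that an upstream database listed as plain numbers.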

logP is the log10 of the octanol-water partition coefficient; higher is more lipophilic.

{"smiles": "CCCCN(CCO)CCO", "name": "N-Butyldiethanolamine", "logP": "0.58"}
{"smiles": "C=C1CCC=C(C)CC[C@@H]2[C@@H]1CC2(C)C", "name": "beta-Caryophyllene", "logP": "6.23"}
{"smiles": "CNS(=O)(=O)c1cc(OC)c(N)cc1OC", "name": "Benzenesulfonamide, 4-amino-2,5-dimethoxy-N-methyl-", "logP": "0.27"}
{"smiles": "OCc1ccc(-c2ccccc2)cc1", "name": "4-Biphenylmethanol", "logP": "3.2"}
{"smiles": "Cc1cc(O[C@@H]2O[C@H](CO)[C@@H](O)[C@H](O)[C@H]2O)cc2c1O[C@](C)(CCC[C@H](C)CCC[C@H](C)CCCC(C)C)CC2", "logP": "9.4"}
{"smiles": "OCNc1ccccc1", "name": "Anilinomethanol", "logP": "-0.22"}
{"smiles": "CC(=O)Oc1ccccc1C(=O)Nc1ncc([N+](=O)[O-])s1", "name": "Nitazoxanide", "logP": "1.2"}
{"smiles": "CCCCCCCC(=O)OCCOc1ccccc1", "name": "Phenoxyethyl caprylate", "logP": "4.9"}
{"smiles": "O=P(O)(C(F)(F)C(F)(F)C(F)(F)C(F)(F)F)C(F)(F)C(F)(F)C(F)(F)C(F)(F)F", "name": "Bis(nonafluorobutyl)phosphinic acid", "logP": "4"}
{"smiles": "CC(C)OC(=O)c1cc(=O)[nH]c(=O)[nH]1", "logP": "0.81"}
{"smiles": "O=C(Nc1ccccc1Sc1ccccc1)Oc1ccccc1", "name": "Phenyl [2-(phenylthio)phenyl]carbamate", "logP": "4.4"}
{"smiles": "CC(=O)CC(=O)OCCOC(=O)CC(C)=O", "name": "Ethylene glycol diacetoacetate", "logP": "-0.9"}
{"smiles": "COS(=O)(=O)[O-].Cc1ccc(Nc2ccc(NCCC[N+](C)(C)C)c3c2C(=O)c2ccccc2C3=O)cc1", "logP": "-2.3"}
{"smiles": "C[Si](C)(C)O[Si](C)(C)O[Si](C)(C)O[Si](C)(C)O[Si](C)(C)O[Si](C)(C)C", "name": "Tetradecamethylhexasiloxane", "logP": "9.419"}
{"smiles": "CC(C)(N)CO", "name": "2-Amino-2-methylpropan-1-ol", "logP": "-0.63"}
{"smiles": "N=c1nc(O)n([C@@H]2O[C@H](CO)C[C@@H]2F)cc1F", "logP": "-0.92"}
{"smiles": "Clc1ccc2c(c1)C(N1CCNCC1)=Nc1ccccc1O2", "name": "Amoxapine", "logP": "3.4"}
{"smiles": "Cc1ccc(Sc2ccc(C(=O)c3ccccc3)cc2)cc1", "name": "Methanone, [4-[(4-methylphenyl)thio]phenyl]phenyl-", "logP": "5.89"}
{"smiles": "CCCN(CCC)c1cc(N)n(O)c(=N)n1", "name": "6-Amino-4-(dipropylamino)-2-iminopyrimidin-1(2H)-ol", "logP": "3.19"}
{"smiles": "CCC1(O)CCCC1CCC(C)C", "stereo": "configuration not stated", "name": "Cyclopentanol, 1-ethyl-2-(3-methylbutyl)-", "logP": "2.4"}
{"smiles": "COc1ccc(NC(=O)CC(C)=O)cc1", "name": "N-(4-Methoxyphenyl)-3-oxobutanamide", "logP": "0.85"}
{"smiles": "C=C(OC(C)=O)c1ccccc1", "name": "1-Phenylethenyl acetate", "logP": "2.01"}
{"smiles": "NS(=O)(=O)c1cc(S(=O)(=O)c2cccc(O)c2)co1", "name": "4-[(3-Hydroxyphenyl)sulfonyl]-2-thiophenesulfonamide", "logP": "1.4"}
{"smiles": "CCCCCCCCCCCCCCCCCC[N+](C)(C)C.[Br-]", "name": "1-Octadecanaminium, N,N,N-trimethyl-, bromide (1:1)", "logP": "3.06"}
{"smiles": "O=C1CCCCCN1", "name": "Caprolactam", "logP": "-0.035"}
{"smiles": "NC(=O)C1=CN(C2OC(COP(=O)([O-])OP(=O)([O-])OCC3OC(n4cnc5c(N)ncnc54)C(O)C3O)C(O)C2O)C=CC1.[Na+].[Na+]", "stereo": "configuration not stated", "name": "NADH disodium salt", "logP": "-1.96"}
{"smiles": "C=C(CC(=O)OCCCC)C(=O)OCCCC", "name": "Dibutyl itaconate", "logP": "3.8"}
{"smiles": "CCCCC(=O)OCC(=O)[C@H]1[C@H](C)C[C@H]2[C@@H]3C[C@H](F)C4=CC(=O)C=C[C@]4(C)[C@H]3[C@@H](O)C[C@@]21C", "logP": "4.23"}
{"smiles": "CN(C/C=C/c1ccccc1)Cc1cccc2ccccc12", "name": "Naftifine", "logP": "5.4"}
{"smiles": "O=S(=O)([O-])c1ccc(/N=N/c2c(O)ccc3ccccc23)c2ccccc12.[Na+]", "name": "C.I. Acid Red 88, monosodium salt", "logP": "-0.546"}
{"smiles": "C[C@@H](N)CCO", "name": "(R)-3-aminobutan-1-ol", "logP": "-0.7"}
{"smiles": "CC=CC=C1C(C)=CC(=O)CC1(C)C", "name": "Tabanone", "logP": "3.11"}
{"smiles": "CCCC[C@H]1CC[C@H](C2CCC(=O)CC2)CC1", "logP": "4.385"}
{"smiles": "O=C1OCC(CO)O1", "stereo": "configuration not stated", "name": "1,3-Dioxolan-2-one, 4-(hydroxymethyl)-", "logP": "-1.39"}
{"smiles": "CS(=O)(=O)c1ccc(F)c(C(=O)O)c1", "name": "2-Fluoro-5-(methanesulfonyl)benzoic acid", "logP": "0.5"}
{"smiles": "Br.CN(Cc1cc(Br)cc(Br)c1N)C1CCCCC1", "logP": "0.57"}

Excerpt, the opening 6 entries:

{"smiles": "CCCCN(CCO)CCO", "name": "N-Butyldiethanolamine", "logP": "0.58"}
{"smiles": "C=C1CCC=C(C)CC[C@@H]2[C@@H]1CC2(C)C", "name": "beta-Caryophyllene", "logP": "6.23"}
{"smiles": "CNS(=O)(=O)c1cc(OC)c(N)cc1OC", "name": "Benzenesulfonamide, 4-amino-2,5-dimethoxy-N-methyl-", "logP": "0.27"}
{"smiles": "OCc1ccc(-c2ccccc2)cc1", "name": "4-Biphenylmethanol", "logP": "3.2"}
{"smiles": "Cc1cc(O[C@@H]2O[C@H](CO)[C@@H](O)[C@H](O)[C@H]2O)cc2c1O[C@](C)(CCC[C@H](C)CCC[C@H](C)CCCC(C)C)CC2", "logP": "9.4"}
{"smiles": "OCNc1ccccc1", "name": "Anilinomethanol", "logP": "-0.22"}

From the experimental data distributed with OPERA 2.9.